# DENV2 CPE rescue: protects cells from dengue virus 2 cytopathic effect | actives 1.7% (n = 350,000) | CPE inhibition, % at 9.99 µM | AID 651640 | DENV2-infected cells, cytopathic effect rescue, plate reader; in the data active = CPE inhibition above about 20%, passing the limit was not always enough; inconclusive = no clear call, values can overlap the other calls; tested in BHK-21 cells;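 note: 0% = median of neutral control wells and 100% = median of positive control wells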
# Cneo AK release: causes C. neoformans cell lysis; adenylate kinase release luminescence, 4 h; normalised: neutral wells 0, clomiphene wells 100; lysis activity, % at 15 µM; actives 0.2% (n = 360,000);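 active = mean lysis activity across replicates of at least 80%, whatever share of replicates individually reach that level; inactive = mean lysis activity below 80%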
#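 Material – log-phase Cryptococcus neoformans yeast cells · Input – 5 × 10^6 yeast cells/mL · Medium – fresh YPD growth medium · Doses – single compound concentration per well · Timing – static 4 h at 37 °C with compound, 1 h detection · Detection – adenylate kinase release luminescence · Read-out – signal increase indicating cell lysis · Control set – Clomiphene as positive lysis control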
# E-sel inducer: induces E-selectin expression in human endothelial cells | P16581 | HUVEC E-selectin immunofluorescence imaging; normalized: neutral wells 0, TNF-alpha wells 100 | activation, % at 7.58 µM | actives 0.37% (n = 260,000) | AID 686992;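 active = mean E-selectin-positive cell signal at least 10% of the positive control, reached in at least 60% of replicates, without over 20% cell loss; inconclusive = no rule given, readout overlaps actives, possibly toxicity-flagged; inactive = the rest, including those meeting only one limit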
#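 assay system = HUVEC, human umbilical vein endothelial cells | input = 3,000 HUVEC seeded per well | medium = EGM-2 growth medium on 0.1% gelatin-coated wells | dosing = one compound dose added by pin transfer | signal = immunofluorescence imaging | read-out basis = % PE-positive cells | control set = TNF-alpha, DMSO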
# Yeast UUG start: modulators of yeast start codon fidelity, primary screen, whole organism, S. cerevisiae, single point, plate reader; S. cerevisiae UUG-firefly luciferase reporter, luminescence/redox ratio; activity score, % at 18.7 µM; actives 0.13% (n = 350,000); AID 602363, 2012;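 active = replicate mean at a twofold rise or more, about +100% in these data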;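 also: firefly luciferase made from a UUG start codon reports start codon fidelity; reporter light over untreated wells divided by growth signal over untreated wells; some hits fall short of that in this replicate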
# * = called active by the depositor; ? = inconclusive; · = not tested or not shown. An excerpt weighted towards active compounds, which were near 1.8% of everything screened.
# Sequence of screens – DENV2 CPE rescue, Cneo AK release, E-sel inducer, Yeast UUG start
[1] CN(C)C1(CNC(=O)C2CCN(S(=O)(=O)c3cc(Cl)ccc3Cl)CC2)CCCCC1
    4, -1, 70*, -18
[2] C[C@H](CO)N1C[C@H](C)[C@@H](CN(C)S(=O)(=O)c2ccc(F)cc2)Oc2ccc(NC(=O)CCCCCC(=O)Nc3ccccc3N)cc2C1=O
    26*, ·, -6, ·
[3] C[C@H](CO)N1C[C@H](C)[C@H](CN(C)Cc2ccc(-c3ccccc3)cc2)Oc2ccc(NC(=O)CCCCCC(=O)Nc3ccccc3N)cc2C1=O
    32*, ·, 18, ·
[4] C[C@H](CO)N1C[C@H](C)[C@H](CN(C)C(=O)Nc2ccccc2)Oc2ccc(NC(=O)CCCCCC(=O)Nc3ccccc3N)cc2C1=O
    52*, ·, 0, ·
[5] C[C@@H]1CN([C@@H](C)CO)C(=O)c2cccc(NC(=O)CCCCCC(=O)Nc3ccccc3N)c2O[C@@H]1CN(C)Cc1ccc2c(c1)OCO2
    50*, ·, -5, ·
[6] C[C@H]1CN([C@@H](C)CO)C(=O)c2cc(NC(=O)CCCCCC(=O)Nc3ccccc3N)ccc2O[C@@H]1CN(C)Cc1ccc2c(c1)OCO2
    -5, ·, ·, ·
[7] C[C@H](CO)N1C[C@H](C)[C@H](CN(C)S(=O)(=O)c2ccc(Cl)cc2)OCCCC[C@H](C)Oc2ccc(NC(=O)Nc3ccccc3)cc2C1=O
    -2, 3, 0, -18
[8] C[C@@H]1CN([C@H](C)CO)C(=O)c2cccc(NC(=O)CCCCCC(=O)Nc3ccccc3N)c2O[C@@H]1CN(C)Cc1ccc(-c2ccccc2)cc1
    36*, ·, 0, ·
[9] Cc1ccc([C@H]2C[C@H](n3cc(COC(=O)c4ccccc4)nn3)[C@@H](O)CN2C(=O)C2CCCCC2)cc1
    52*, 4, 0, -33
[10] COc1ccc([C@H]2C[C@H](n3cc(C4CC4)nn3)[C@@H](O)CN2C(=O)C2CCCCC2)cc1
    -8, 0, 0, 0
[11] O=C(C1CCCCC1)N1C[C@H](O)[C@@H](n2cc(C3CC3)nn2)C[C@@H]1c1ccccc1
    86*, -2, 1, -22
[12] COc1ccc([C@H]2C[C@H](n3cc(COC(=O)c4ccccc4)nn3)[C@@H](O)CN2C(=O)C2CCCCC2)cc1
    -1, 4, 0, 0
[13] O=C(OCc1cn([C@H]2CN(C(=O)C3CCCCC3)[C@@H](c3ccccc3)C[C@@H]2O)nn1)c1ccccc1
    25*, -3, ·, -8
[14] CCCCCC(=O)N1C[C@@H](n2cc(C3CC3)nn2)[C@H](O)C[C@@H]1c1ccccc1
    25*, -3, ·, -1
[15] C[C@H]1CN([C@@H](C)CO)C(=O)c2cccc(NS(=O)(=O)c3ccc(F)cc3)c2O[C@H]1CN(C)S(=O)(=O)c1ccc(F)cc1
    -7, 1, 0, 2

# Rewritten with one line to a screen: part of the list above
(7) C[C@H](CO)N1C[C@H](C)[C@H](CN(C)S(=O)(=O)c2ccc(Cl)cc2)OCCCC[C@H](C)Oc2ccc(NC(=O)Nc3ccccc3)cc2C1=O
(9) Cc1ccc([C@H]2C[C@H](n3cc(COC(=O)c4ccccc4)nn3)[C@@H](O)CN2C(=O)C2CCCCC2)cc1

Assay by compound | 7 | 9
DENV2 CPE rescue | -2 | 52*
Cneo AK release | 3 | 4
E-sel inducer | 0 | 0
Yeast UUG start | -18 | -33

# Results in Cneo AK release, E-sel inducer and DENV2 CPE rescue (4 entries from above):
nr | Molecule | Cneo AK release | E-sel inducer | DENV2 CPE rescue
4 | C[C@H](CO)N1C[C@H](C)[C@H](CN(C)C(=O)Nc2ccccc2)Oc2ccc(NC(=O)CCCCCC(=O)Nc3ccccc3N)cc2C1=O | · | 0 | 52*
5 | C[C@@H]1CN([C@@H](C)CO)C(=O)c2cccc(NC(=O)CCCCCC(=O)Nc3ccccc3N)c2O[C@@H]1CN(C)Cc1ccc2c(c1)OCO2 | · | -5 | 50*
6 | C[C@H]1CN([C@@H](C)CO)C(=O)c2cc(NC(=O)CCCCCC(=O)Nc3ccccc3N)ccc2O[C@@H]1CN(C)Cc1ccc2c(c1)OCO2 | · | · | -5
7 | C[C@H](CO)N1C[C@H](C)[C@H](CN(C)S(=O)(=O)c2ccc(Cl)cc2)OCCCC[C@H](C)Oc2ccc(NC(=O)Nc3ccccc3)cc2C1=O | 3 | 0 | -2

# Other entries follow:
# Sequence of screens – DENV2 CPE rescue, Cneo AK release, E-sel inducer, Yeast UUG start
[16] O=C(CSc1ccccn1)N/N=C/c1cccc([N+](=O)[O-])c1
    46*, 1, ·, -15
[17] CC(C)NC(=O)Nc1ccc2c(c1)C(=O)N([C@@H](C)CO)C[C@H](C)[C@H](CN(C)C(=O)c1ccncc1)OCCCC[C@@H](C)O2
    -5, 1, 0, ·
[18] C[C@@H]1CN([C@@H](C)CO)C(=O)c2cc(NS(C)(=O)=O)ccc2O[C@@H](C)CCCCO[C@H]1CN(C)C(=O)c1ccncc1
    69*, -5, 0, 14
[19] CC(C)NC(=O)Nc1ccc2c(c1)C(=O)N([C@@H](C)CO)C[C@@H](C)[C@@H](CN(C)C(=O)c1ccncc1)OCCCC[C@@H](C)O2
    ?, 111*, 0, ·
[20] CC(C)NC(=O)Nc1ccc2c(c1)C(=O)N([C@H](C)CO)C[C@@H](C)[C@H](CN(C)C(=O)c1ccncc1)OCCCC[C@H](C)O2
    3, 1, 0, ·
[21] C[C@H](CO)N1C[C@H](C)[C@H](CN(C)C(=O)c2ccncc2)OCCCC[C@H](C)Oc2ccc(NS(=O)(=O)c3cn(C)cn3)cc2C1=O
    24*, -2, 0, -7
[22] C[C@@H]1CCCCO[C@H](CN(C)C(=O)c2ccncc2)[C@@H](C)CN([C@@H](C)CO)C(=O)c2cc(NS(C)(=O)=O)ccc2O1
    -2, 0, 0, 5
[23] CC(C)NC(=O)Nc1ccc2c(c1)C(=O)N([C@@H](C)CO)C[C@@H](C)[C@H](CN(C)C(=O)c1ccncc1)OCCCC[C@H](C)O2
    -4, 115*, 0, ·
[24] CN1C(=O)c2cc(NC(=O)c3cccs3)ccc2OC[C@@H]2O[C@@H](CC(=O)N3CCCCC3)CC[C@H]21
    5, -2, 0, ·
[25] COc1ccc2c3c(n(C)c2c1)[C@@H](CO)N(C(=O)c1ccncc1)CC31CN(CC2CC2)C1
    6, ·, 0, ·
[26] COC(=O)C[C@@H]1C=C[C@H](NC(=O)Nc2ccc(C(F)(F)F)cc2)[C@@H](CO)O1
    -1, -5, 0, ·
[27] O=C(Cc1ccccn1)N1CC(=O)N2[C@H](CO)[C@H](c3ccc(C#CC4CC4)cc3)[C@@H]2C1
    40*, ·, -1, ·
[28] O=C(c1ccc(F)cc1)N1CC(=O)N2[C@@H](CO)[C@@H](c3ccc(C#CC4CCCC4)cc3)[C@@H]2C1
    44*, ·, -1, ·
[29] O=C(C1CCOCC1)N1CC(=O)N2[C@@H](CO)[C@H](c3ccc(C#CC4CCCC4)cc3)[C@@H]2C1
    52*, ·, 0, ·
[30] O=C(Cc1ccccn1)N1CC(=O)N2[C@H](CO)[C@@H](c3ccc(C#CC4CC4)cc3)[C@@H]2C1
    7, ·, 0, ·
[31] O=C(c1ccc(F)cc1)N1CC(=O)N2[C@H](CO)[C@H](c3ccc(-c4ccccc4)cc3)[C@H]2C1
    24*, ·, 0, ·
[32] Cc1cc(C(=O)Nc2ccc3c(c2)C(=O)N(C)[C@@H]2CC[C@H](CC(=O)N[C@H](C)c4ccccc4)O[C@H]2CO3)no1
    -5, 9, 1, 14
[33] CCCNC(=O)Nc1ccc2c(c1)C(=O)N(C)C[C@H](OC)[C@@H](C)CN(C(=O)C1CCCCC1)[C@H](C)CO2
    18, -4, 0, ·
[34] O=C1CCCCCCC(=O)[C@H](O)C[C@H](c2ccccc2)O1
    50*, ·, 0, ·
[35] COc1ccc2c(c1)C(=O)O[C@@H](c1ccccc1)C[C@@H](O)C(=O)CC2
    33*, ·, 0, ·
[36] O=C1CCCCC(=O)[C@H](O)C[C@H](c2ccccc2)O1
    4, ·, 2, ·
[37] C[C@H](NC(=O)C[C@H]1CC[C@H]2[C@@H](COC[C@@H](O)CN2C(=O)Nc2ccccc2)O1)c1ccccc1
    -14, 1, 0, 3
[38] C[C@H](NC(=O)C[C@@H]1CC[C@@H]2[C@H](COC[C@H](O)CN2C(=O)Nc2ccccc2)O1)c1ccccc1
    34*, -2, 0, -4
[39] C[C@H](NC(=O)C[C@@H]1CC[C@H]2[C@@H](COC[C@H](O)CN2C(=O)Nc2ccccc2)O1)c1ccccc1
    31*, -1, 0, -3
[40] O=C(O)/C=C/C(=O)c1ccc2c(c1)CCc1ccccc1-2
    29*, -1, 0, -36
[41] COc1ccc(NC(=O)Nc2ccc3c(c2)C(=O)N([C@@H](C)CO)C[C@@H](C)[C@H](CN(C)S(=O)(=O)c2ccc(F)cc2)OCCCC[C@@H](C)O3)cc1
    -9, 1, ·, -12
